# Measurements: PMC6522927, “Fibrate-based N-acylsulphonamides targeting carbonic anhydrases: synthesis, biochemical evaluation, and docking studies” (Journal of Enzyme Inhibition and Medicinal Chemistry, 2019)
# Protein sequences, listed by entry. Tags and fused reporters are not part of them. Residues count along the entry.
# UniProt P00915, whole entry: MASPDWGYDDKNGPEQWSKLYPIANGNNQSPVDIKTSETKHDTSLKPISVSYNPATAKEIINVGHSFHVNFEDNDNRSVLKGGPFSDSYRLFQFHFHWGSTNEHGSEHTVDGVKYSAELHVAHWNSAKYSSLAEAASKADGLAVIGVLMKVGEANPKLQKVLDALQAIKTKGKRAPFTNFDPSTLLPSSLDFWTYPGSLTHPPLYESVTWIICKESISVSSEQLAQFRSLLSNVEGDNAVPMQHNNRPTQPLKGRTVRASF
# UniProt O43570, 25-354 limits assumed: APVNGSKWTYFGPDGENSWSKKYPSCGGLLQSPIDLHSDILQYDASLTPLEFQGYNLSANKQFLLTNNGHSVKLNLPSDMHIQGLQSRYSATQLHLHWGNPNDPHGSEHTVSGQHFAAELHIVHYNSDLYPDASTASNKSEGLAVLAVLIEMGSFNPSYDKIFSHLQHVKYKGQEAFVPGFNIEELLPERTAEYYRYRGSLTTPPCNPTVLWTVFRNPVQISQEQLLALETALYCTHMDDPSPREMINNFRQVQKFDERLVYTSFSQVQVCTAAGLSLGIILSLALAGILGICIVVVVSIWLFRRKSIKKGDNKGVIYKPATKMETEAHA
# Experiments:
# hCA I = hCA I (Homo sapiens, UniProt P00915); experiment: stopped-flow CO2 hydrase assay, hCA I; conditions: for inhibition of hCA I (in words): result stated in words
# hCA II = hCA II (Homo sapiens, UniProt P00918); experiment: stopped-flow CO2 hydrase assay, hCA II; conditions: result stated in words
# hCA XII = hCA XII (Homo sapiens, UniProt O43570); experiment: stopped-flow CO2 hydrase assay, hCA XII; conditions: read-out: Ki hCA XII; recombinant hCA XII, CO2 hydration, 15 min preincubation
# hCA IX = hCA IX (Homo sapiens, UniProt Q16790); experiment: stopped-flow CO2 hydrase assay, hCA IX; conditions: result stated in words
inhibition of hCA I (in words) (hCA I),inhibition of hCA II (in words) (hCA II),Ki (hCA XII) [µM],inhibition of hCA IX (in words) (hCA IX),"Ki (hCA I; read-out: Ki hCA I, recombinant hCA I, CO2 hydration, 15 min preincubation) [µM]",SMILES
no activity,no activity,61,no activity,,CCCC(Sc1nc2ccc(OCC)cc2s1)C(=O)NS(C)(=O)=O (centres unmarked)
moderately inhibited,moderately inhibited,,moderately inhibited,< 10,CC(C)C(Sc1nc2cc(Cl)ccc2s1)C(=O)NS(=O)(=O)c1ccccc1 (centres unmarked)
